{"source": "ChEMBL document CHEMBL1932952", "about": "“Synthesis and biochemical analysis of 2,2,3,3,4,4,5,5,6,6,7,7-dodecafluoro-N-hydroxy-octanediamides as inhibitors of human histone deacetylases” (Bioorg Med Chem, 2012)", "target": "T1, Histone deacetylase 8 (Homo sapiens, UniProt Q9BY41)", "T1 sequence (Q9BY41 whole entry)": "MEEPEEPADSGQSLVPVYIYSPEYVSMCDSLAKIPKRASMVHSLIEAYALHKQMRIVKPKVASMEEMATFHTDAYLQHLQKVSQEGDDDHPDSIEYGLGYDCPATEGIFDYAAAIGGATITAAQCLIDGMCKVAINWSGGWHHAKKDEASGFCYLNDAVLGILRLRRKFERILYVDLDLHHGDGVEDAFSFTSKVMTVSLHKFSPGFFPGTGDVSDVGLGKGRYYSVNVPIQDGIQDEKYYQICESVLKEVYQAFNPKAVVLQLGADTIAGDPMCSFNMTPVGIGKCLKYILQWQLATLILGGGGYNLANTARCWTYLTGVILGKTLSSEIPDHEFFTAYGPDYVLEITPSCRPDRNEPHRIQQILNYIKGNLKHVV", "assay": "Inhibition of recombinant human HDAC8 using Boc-L-Lys(trifluoroacetyl)-MCA as substrate by fluorogenic enzymatic assay", "note": "pKd: −log10 of the molar value."}
{"smiles": "O=C(CCCCCCC(=O)Nc1ccccc1)NO", "note": "[VORINOSTAT]", "values": [{"measurement": "pKd", "value": 5.54}]}
